From PMC2805098

Test system: NADH
Assay: purified protein, by the assay type
Conditions: 25 °C, pH 7.2

Row | Substance | Km (other: 400 μM CH2-H4folate, anaerobic) | Km (other: […] μM menadione) | kcat (other: […] μM menadione) | Km (other: 50 μM CH2-H4folate, anaerobic)
1 | Phe223Ala MTHFR (Escherichia coli K-12; F223A) | 140 ± 7 µM | 585 ± 200 µM | 22 s⁻¹ | 
2 | Phe223Leu MTHFR (Escherichia coli K-12; F223L) |  | 470 ± 115 µM | 31 s⁻¹ | 236 ± 36 µM
